# Values quoted from earlier work, collected in patent US20220089531A1, “NEW SALICYLIC ACID DERIVATIVES, PHARMACEUTICALLY ACCEPTABLE SALT THEREOF, COMPOSITION THEREOF AND METHOD OF USE THEREOF” (THE GOVERNING COUNCIL OF THE UNIVERSITY OF TORONTO, priority 2018, published 2022).
# Sequences of proteins named here, by UniProt entry; tags and fusion partners are left off.
# UniProt P40763, whole entry: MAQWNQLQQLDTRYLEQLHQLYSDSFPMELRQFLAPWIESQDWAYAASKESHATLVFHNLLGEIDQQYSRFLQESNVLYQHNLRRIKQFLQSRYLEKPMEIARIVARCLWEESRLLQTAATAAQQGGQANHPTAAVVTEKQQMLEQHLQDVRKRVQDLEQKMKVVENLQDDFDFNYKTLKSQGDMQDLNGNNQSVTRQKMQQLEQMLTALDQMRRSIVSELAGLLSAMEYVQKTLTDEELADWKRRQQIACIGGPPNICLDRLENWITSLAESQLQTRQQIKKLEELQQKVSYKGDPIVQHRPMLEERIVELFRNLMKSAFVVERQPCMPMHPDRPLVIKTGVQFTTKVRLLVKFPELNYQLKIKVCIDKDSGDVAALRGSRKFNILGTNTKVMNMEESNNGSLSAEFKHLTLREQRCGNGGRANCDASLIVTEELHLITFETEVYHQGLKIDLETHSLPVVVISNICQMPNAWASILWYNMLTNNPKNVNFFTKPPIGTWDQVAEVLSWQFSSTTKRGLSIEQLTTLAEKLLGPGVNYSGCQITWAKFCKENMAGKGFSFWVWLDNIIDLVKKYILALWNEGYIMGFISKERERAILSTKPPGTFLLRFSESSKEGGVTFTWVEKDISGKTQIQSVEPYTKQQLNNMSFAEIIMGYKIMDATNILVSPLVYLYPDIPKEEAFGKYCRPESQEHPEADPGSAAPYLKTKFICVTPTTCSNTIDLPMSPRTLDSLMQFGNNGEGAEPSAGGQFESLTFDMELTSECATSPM
# Target: STAT3 (Homo sapiens, UniProt P40763)
# Conditions: STAT3 versus 93% homologous STAT1; cited from earlier work
substance,measurement,value
BP-1-102,selectivity for STAT3: fold less binding to STAT1,over 10 fold
